# Source: PubChem BioAssay AID1424 (The Scripps Research Institute Molecular Screening Center, 2008)
# This is a selection; strong and weak results do not stand in their true shares. Calls of active or inactive are those of the source.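 How the source made its calls: active means activation above its plate's cutoff, the mean activation of test wells on that plate plus 3 SD (cut at about 19% in these data); inactive means the rest.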
# Tested on: transient receptor potential cation channel N1 (TRPN1/NompC), Danio rerio
# Experiment: zebrafish TRPN1 channel agonists, primary screen, cell-based, HEK293, calcium fluorescence (AID 1424);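 further: 0% = DMSO alone and 100% = 87 µM carbachol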
# Conditions: HEK293 zebrafish TRPN1-YFP, Fluo-8 calcium fluorescence; at 3 µM; hits give high values; 100% = response to 87 µM carbachol
# Outline: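 System: zebrafish TRPN1-YFP in HEK293 cells / Dosing: 3 µM single point / Timing: dye loading 1 h at 37 °C, then 30 min room temperature / Signal: Fluo-8 calcium fluorescence, excitation 470-495 nm, emission 515-575 nm / Read-out basis: percent activation from peak over basal fluorescence ratio, control-normalized / Control set: high carbachol 87 µM, low DMSO alone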
row,SMILES,activation
1,O=C(NCC1(N2CCCCC2)CCCCC1)c1cccc([N+](=O)[O-])c1,inactive: 2.52%
2,N#CC1(Nc2ccccc2)CCN(CCc2ccccc2)CC1,inactive: 0.48%
3,CN1CCN(CCOC(=O)C(O)(c2ccccc2)c2ccccc2)CC1,inactive: 0.6%
4,COc1ccc(NC2CCN(C(=O)OC(C)(C)C)CC2)cc1,inactive: 0.91%
5,O=C(NCC1(N2CCOCC2)CCCCC1)c1cc(=O)[nH]c2ccccc12,inactive: 0.92%
6,COc1ccc(CN(CCCl)CCCl)cc1Cl,inactive: -0.93%
7,CN(C)c1cccc(C(=O)NCC2(N3CCCCC3)CCCCC2)c1,inactive: 0.13%
8,CC(C)c1ccc(NC2CCN(C(=O)OC(C)(C)C)CC2)cc1,inactive: 0.85%
9,CN1CCC(Nc2cccc(F)c2)CC1,inactive: -0.17%
10,COc1ccc(C(=O)NCC2(N3CCCCC3)CCCCC2)c(OC)c1OC,inactive: 0.68%
11,O=C(NCC1(N2CCOCC2)CCCCC1)c1cc2ccccc2o1,inactive: -0.72%
12,CCOC(=O)N1CCC(Nc2ccc(OC)cc2)CC1,inactive: -0.42%
13,O=C(OC1CN2CCC1CC2)C1c2ccccc2Oc2ccccc21 (centres undefined),inactive: 1.23%
14,N#CC1(Nc2ccccc2)CCN(Cc2ccccc2)CC1,inactive: 1.9%
15,CCOc1ccc(C)cc1CN(CCCl)CCCl,inactive: -0.65%
16,COc1ccc(NC2CCN(CCc3ccccc3)CC2)c(OC)c1,inactive: -0.81%
17,Cc1ccc(OCC(C)C)c(CN(CCCl)CCCl)c1,inactive: 0.55%
18,CCN1CCC(Nc2cccc(F)c2)CC1,inactive: 0.37%
19,CN(C)c1ccc(C(=O)NCC2(N3CCCCC3)CCCCC2)cc1,inactive: -0.72%
20,CCOc1ncccc1C(=O)NCC1(N2CCOCC2)CCCCC1,inactive: 0.15%
21,CC(C)(C)OC(=O)N1CCC(Nc2ccccc2)CC1,inactive: -0.99%
22,CCC(CO)(C(=O)OC1CN2CCC1CC2)c1ccccc1 (centres undefined),inactive: 0.91%
23,COc1cc(OC)cc(C(=O)NCC2(N3CCOCC3)CCCCC2)c1,inactive: -0.72%
24,CCCOc1ccc(C)cc1CN(CCCl)CCCl,inactive: -1.11%
25,COc1ccc(C(=O)NCC2(N3CCOCC3)CCCCC2)cc1OC,inactive: -0.49%
26,N/C(=N\O)c1c(N)no[n+]1[O-],inactive: 1.82%
27,O=C(OC1CN2CCC1CC2)C1c2ccccc2C=Cc2ccccc21 (centres undefined),inactive: -0.45%
28,N#Cc1ccc(C(=O)NCC2(N3CCCCC3)CCCCC2)cc1,inactive: 2.35%
29,c1ccc(CN2CCC(Nc3ccccc3)CC2)cc1,inactive: 0.45%
